Experimental data published in publication PMC6350010.

Columns and labels:
Experiment in all cases: single-molecule fluorescence burst analysis
[1] = target: Wild-type Aβ (1–40) peptide
[2] = target: Wild-type Aβ (1–42) peptide
[3] = target: Wild-type Aβ (1–40) peptide; remark: listed apart in the source

| Substance | mean of the oligomer size distribution, μ1 (relative photon number N phot,rel) [1] | mean of the oligomer size distribution, μ1 (relative photon number N phot,rel) [2] | mean of the oligomer size distribution, μ1 (relative photon number N phot,rel) [3] |
| --- | --- | --- | --- |
| HL647-Aβ40 (peptide; HiLyte 647 bound to the N-terminus; other documents disagree on this pair) | 10.6 N¯phot,mon |  |  |
| Atto488-Aβ42 (peptide; Atto 488 bound to the N-terminus; other documents disagree on this pair) |  | 4.49 N¯phot,mon |  |
| HL488-Aβ40 (peptide; HiLyte 488 bound to the N-terminus; other documents disagree on this pair) | 4.1 N¯phot,mon |  |  |
| Atto488-Aβ40 (peptide; Atto 488 bound to the N-terminus; other documents disagree on this pair) | 2.7 N¯phot,mon |  | 2.88 N¯phot,mon |

Like-named read-outs stand apart in the source and are kept apart here.
